Measurements reported in ChEMBL document CHEMBL3872219, “Computational and synthetic approaches for developing Lavendustin B derivatives as allosteric inhibitors of HIV-1 integrase” (Eur J Med Chem, 2016).

Test: Ratio of IC50 for FLAG or His-tagged HIV1 integrase 3' processing activity to IC50 for His-tagged LEDGF/p75 (unknown origin) dependent FLAG or His-tagged HIV1 integrase activity

**Q.** For O=C(O)c1cc(N(Cc2ccccc2Cl)Cc2ccccc2Cl)ccc1O, which Ratio IC50 is on record?
**A.** Its Ratio IC50 is 8.
